Data set [1] in a line: Surfactant combinations giving clear aqueous dispersions (maximum hydrophobic surfactant, visual optical clarity). The conditions noted are these: 10× aqueous dispersion, no solubilizer.
For data set [2] the following is noted: value reported by the manufacturer of the commercial product, a rough average, or inventors' judgment; cited from earlier work.

In the case of Glyceryl caprylate/caprate, the “approximate maximum grams of hydrophobic surfactant per 100 g of hydrophilic surfactant giving acceptable optical clarity” value was 20 g per 100 g of hydrophilic sur in data set [1] (hydrophilic surfactant PEG-8 Capric/Caprylic (Labrasol)); 10 g per 100 g of hydrophilic sur in data set [1] (hydrophilic surfactant PEG-25 Glyceryl trioleate (Tagat TO)); 10 g per 100 g of hydrophilic sur in data set [1] (hydrophilic surfactant PEG-35 Castor Oil (Incrocas 35)); 50 g per 100 g of hydrophilic sur in data set [1] (hydrophilic surfactant PEG-40H Castor Oil (Cremophor RH-40)); 25 g per 100 g of hydrophilic sur in data set [1] (hydrophilic surfactant PEG-60 Corn Oil (Crovol M-70)); 25 g per 100 g of hydrophilic sur in data set [1] (hydrophilic surfactant Polysorbate 80 (Tween 80)). In addition, the “approximate maximum grams of hydrophobic surfactant per 100 g of hydrophilic surfactant giving acceptable optical clarity” value in data set [1] (hydrophilic surfactant Polysorbate-20 (Tween 20)) is given as 20 g per 100 g of hydrophilic sur.

For the substance PEG-10-100 nonyl phenol, in data set [2], the HLB is over 10.

On to PEG-15-100 octyl phenol ether, for which the HLB in data set [2] was over 10.

Consider Propylene glycol caprylate/caprate, for which the HLB in data set [2] is given as over 6.
